# Assay results from PubChem BioAssay AID871 (The Scripps Research Institute Molecular Screening Center, 2007).
# This is a selection; strong and weak results do not stand in their true shares. The source made the active and inactive calls.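 The calls were made as follows: active = activation above the screen-wide mean of compound activation plus 3 SD (cut at about 130% in these data); inactive = the rest.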
# Experiment: enhancers of STAT3 transcriptional signaling – U3A cells, luciferase, luminescence, MLSCN library, primary screen (AID 871);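 also: 0% = background luminescence of wells with medium and substrate only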
# Conditions: IL-6 STAT3-luciferase reporter, at 5.6 µM, hits give high values, 100% = signal with IL-6 EC80 alone
# Procedure, shortened: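 system = STAT3-luciferase reporter U3A cells | reagent = IL-6 stimulus at 33 ng/mL final | timing = 1 h compound pre-exposure, 6 h IL-6 stimulation, 37 °C | measured by = luminescence | evaluation = % activation versus median of IL-6-stimulated wells | control set = IL-6-only wells as 100% reference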
row,SMILES,activation (% of control)
1,COc1ccc(OP(C)(=O)Nc2cccc(Br)c2)cc1 (stereo not given),inactive: 105%
2,COc1ccc(NP(C)(=O)Oc2ccccc2OC)cc1 (stereo not given),inactive: 97.9%
3,CN(C)CCOC(=O)C(O)(c1ccccc1)C1CCCCC1 (stereo not given),inactive: 100%
4,O=[N+]([O-])c1cc([N+](=O)[O-])c(NCC2CCS(=O)(=O)C2)c([N+](=O)[O-])c1 (stereo not given),inactive: 99.3%
5,CCOP(C)(=S)SCC(=O)NC(C)(CC)C(=O)O (stereo not given),inactive: 101%
6,CP(=O)(Nc1ccc2c(c1)OCCO2)Oc1ccccc1 (stereo not given),inactive: 95.9%
7,Cc1ccccc1NP(C)(=O)Nc1ccccc1C,inactive: 101%
8,CC(C)c1ccc(OP(C)(=O)Nc2ccc(SC(F)(F)F)cc2)cc1 (stereo not given),inactive: 99.5%
9,CP(=O)(Nc1ccccc1F)Oc1ccccc1 (stereo not given),inactive: 105%
10,O=C(OCCN1CCN(CCOCc2ccccc2)CC1)C(O)(c1ccccc1)c1ccccc1,inactive: 94.5%
11,COc1ccc(OP(C)(=O)Nc2ccc(SC(F)(F)F)cc2)cc1 (stereo not given),inactive: 107%
12,CCOC(=O)c1ccc(NP(C)(=O)Oc2ccc(F)cc2)cc1 (stereo not given),inactive: 98.9%
13,CCN(CC)CCCOC(=O)C(O)(c1ccccc1)C1CCCCC1 (stereo not given),inactive: 96.7%
14,CP(=O)(Nc1ccccc1)Oc1ccc(F)cc1 (stereo not given),inactive: 95.5%
15,Cc1cc(C)cc(OP(C)(=O)Nc2cccc(C(F)(F)F)c2)c1 (stereo not given),inactive: 99.7%
16,COc1ccc(OP(C)(=O)Nc2ccccc2Br)cc1 (stereo not given),inactive: 98.5%
17,COc1ccccc1OP(C)(=O)Nc1ccc(C)c(C)c1 (stereo not given),inactive: 98.2%
18,Cc1nc2ccc3ccccc3c2o1.O=[N+]([O-])c1cc([N+](=O)[O-])c(O)c([N+](=O)[O-])c1,inactive: 106%
19,CP(=O)(Nc1ccc(Cl)cc1Cl)Oc1ccccc1 (stereo not given),inactive: 106%
20,CP(=O)(OCCOc1ccccc1)OCCOc1ccccc1,inactive: 91.3%
21,CN(C)CCOC(=O)C(O)(c1ccccc1)C1CCCC1 (stereo not given),inactive: 108%
22,COc1ccc(OP(C)(=O)Nc2ccccn2)cc1 (stereo not given),inactive: 98.8%
23,Cc1c(NP(C)(=O)Oc2ccc(C(C)C)cc2)c(=O)n(-c2ccccc2)n1C (stereo not given),inactive: 101%
24,O=[N+]([O-])c1cc([N+](=O)[O-])c(Nc2ccccn2)c([N+](=O)[O-])c1,inactive: 86%

row,SMILES,activation (% of control)
1,CCc1ccc(OP(C)(=O)O)cc1,inactive: 99.4%
2,CP(=O)(Nc1ccccn1)Oc1ccccc1 (stereo not given),inactive: 101%
3,COc1ccccc1OP(C)(=O)Nc1ccc(C)cc1C (stereo not given),inactive: 98.8%
4,CCN(CC)CC(O)COC(=O)C(O)(c1ccccc1)C1CCCCC1 (stereo not given),inactive: 102%
5,COc1ccc(OP(C)(=O)Nc2ccc(Br)cc2)cc1 (stereo not given),inactive: 95.7%
6,CP(=O)(Oc1ccccc1)N1CCOC1=O (stereo not given),inactive: 91.4%
7,CCc1ccc(OP(C)(=O)Nc2cccnc2)cc1 (stereo not given),inactive: 111%
8,COc1ccccc1OP(C)(=O)Nc1c(C)n(C)n(-c2ccccc2)c1=O (stereo not given),inactive: 109%
9,CP(=O)(Nc1ccc(Cl)cc1)Oc1ccc(F)cc1 (stereo not given),inactive: 100%
10,COc1ccccc1OP(C)(=O)Nc1ccccc1Br (stereo not given),inactive: 93.7%
11,CC(C)(C)c1ccc(OP(C)(=O)O)cc1,inactive: 99.4%
12,CN(C)C(=O)c1c([N+](=O)[O-])cc([N+](=O)[O-])cc1[N+](=O)[O-],inactive: 99.4%
13,CP(=O)(OC12CC3CC(CC(C3)C1)C2)OC12CC3CC(CC(C3)C1)C2,inactive: 98%
14,CCOC(=O)c1ccc(NP(C)(=O)Oc2ccc(Cl)cc2)cc1 (stereo not given),inactive: 97.9%
15,CP(=S)(Nn1cnnc1)Oc1ccccc1 (stereo not given),inactive: 93.5%
16,COc1ccccc1OP(C)(=O)Nc1ccccc1 (stereo not given),inactive: 101%
17,CP(=O)(Nc1ccccc1Br)Oc1ccccc1 (stereo not given),inactive: 88.4%
18,Cc1cccc(C)c1OP(C)(=O)Nc1ccc(SC(F)(F)F)cc1 (stereo not given),inactive: 105%
19,CP(=O)(Oc1ccccc1)OC(c1ccccc1)C(F)(F)F (stereo not given),inactive: 106%
20,CP(=O)(NC(=O)Nc1ccccc1)Oc1ccccc1 (stereo not given),inactive: 100%
21,Cc1cc(C)cc(OP(C)(=O)Nc2ccc(SC(F)(F)F)cc2)c1 (stereo not given),inactive: 107%
22,CCOP(C)(=S)SCC(=O)NC(C)C(=O)O (stereo not given),inactive: 102%
23,CCOC(=O)c1ccc(NP(C)(=O)Oc2ccc(OC)cc2)cc1 (stereo not given),inactive: 93.6%
24,CP(=O)(Nc1ccccn1)Oc1ccc(Cl)cc1 (stereo not given),inactive: 107%

row,SMILES,activation (% of control)
1,CCN(CC)CCCOC(=O)C(O)(c1ccccc1)c1ccccc1,inactive: 105%
2,CC(C)(C)c1ccc(OP(C)(=O)Nc2ccc(SC(F)(F)F)cc2)cc1 (stereo not given),inactive: 94.5%
3,Cc1cccc(C)c1OP(C)(N)=O (stereo not given),inactive: 90.8%
4,O=[N+]([O-])c1ccc2c(c1)C=Nc1ccccc1O2,inactive: 106%
5,CCOC(=O)c1ccc(NP(C)(=O)Oc2ccccc2)cc1 (stereo not given),inactive: 103%
6,COc1ccccc1OP(C)(=O)Nc1ccc(C)cc1 (stereo not given),inactive: 94.3%
7,Cc1ccc(NP(C)(=O)Oc2ccccc2)c(C)c1 (stereo not given),inactive: 105%
8,COc1ccccc1OP(C)(=O)Nc1cc(Cl)ccc1C (stereo not given),inactive: 95.9%
9,COc1ccc(OP(C)(=O)Nc2cccc(F)c2)cc1 (stereo not given),inactive: 101%
10,Cc1cc(C)cc(OP(C)(N)=O)c1 (stereo not given),inactive: 95.7%
11,CC1=NCCc2c1[nH]c1ccccc21.O=[N+]([O-])c1cc([N+](=O)[O-])c(O)c([N+](=O)[O-])c1,inactive: 101%
12,Cc1cc(C)cc(OP(C)(=O)Nc2ccc(C)cc2C)c1 (stereo not given),inactive: 98.7%
13,CCOC(=O)c1ccc(NP(C)(=O)Oc2cc(C)cc(C)c2)cc1 (stereo not given),inactive: 100%
14,Cc1cc(C)cc(OP(C)(=O)Nc2ccccn2)c1 (stereo not given),inactive: 101%
15,CP(=O)(Nc1cccc(Br)c1)Oc1ccccc1 (stereo not given),inactive: 99.3%
16,Cc1ccc(C)c(NP(C)(=O)Oc2ccccc2)c1 (stereo not given),inactive: 100%
17,O=[N+]([O-])c1cc([N+](=O)[O-])c(-n2nnc3ccccc32)c([N+](=O)[O-])c1,inactive: 104%
18,Cc1nc2ccc3ccccc3c2s1.O=[N+]([O-])c1cc([N+](=O)[O-])c(O)c([N+](=O)[O-])c1,inactive: 93.5%
19,COc1ccccc1OP(C)(=O)Nc1c(C)cccc1C (stereo not given),inactive: 99.5%
20,CN1CCCCC1COC(=O)C1(O)c2ccccc2CCc2ccccc21 (stereo not given),inactive: 99.5%
21,CCCOc1ccc(NP(C)(=O)Oc2ccc(Cl)cc2)cc1 (stereo not given),inactive: 107%
22,CP(=O)(Nc1ccc(SC(F)(F)F)cc1)Oc1ccccc1 (stereo not given),inactive: 101%
